Test results from patent publication US10183938B2, “Geminal substituted quinuclidine amide compounds as agonists of α-7 nicotonic acetylcholine receptors” (AXOVANT SCIENCES GMBH, priority 2014, dated 2019).
Where a name gives a salt, the structure may show the parent alone.

Amino acid sequences for entries named in this document (tags omitted). Residues count along the entry.
UniProt P36544, 23-502 limits assumed: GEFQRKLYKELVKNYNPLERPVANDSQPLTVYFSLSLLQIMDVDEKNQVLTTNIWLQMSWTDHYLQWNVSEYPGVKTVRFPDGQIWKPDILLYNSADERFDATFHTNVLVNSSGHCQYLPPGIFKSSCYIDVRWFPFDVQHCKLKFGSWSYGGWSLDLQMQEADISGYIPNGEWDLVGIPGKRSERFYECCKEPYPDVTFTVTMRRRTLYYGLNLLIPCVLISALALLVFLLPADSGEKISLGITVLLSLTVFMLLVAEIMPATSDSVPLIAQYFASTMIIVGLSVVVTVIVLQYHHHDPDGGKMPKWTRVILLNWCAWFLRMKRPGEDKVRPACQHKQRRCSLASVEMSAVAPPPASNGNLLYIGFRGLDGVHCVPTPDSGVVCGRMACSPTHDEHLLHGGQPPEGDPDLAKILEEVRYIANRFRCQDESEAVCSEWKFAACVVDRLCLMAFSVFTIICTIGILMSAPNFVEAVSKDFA

molecular target: human α7 nAChRs transiently expressed in Xenopus laevis oocytes (Homo sapiens (Human), UniProt P36544); experiment: Oocyte electrophysiology screen (TEVC); format: cell-based; details: 0.01 mM test compound, peak current relative to 0.2 mM ACh; hydrochloride
Protocol: Oocyte Electrophysiology Screen (% ACh @ 10 μM Oocyte)
The Oocyte Electrophysiology Screen studies were performed under contract by HiQScreen Geneva, Switzerland. All experiments were carried out at human α7 nAChRs transiently expressed in Xenopus laevis oocytes using the method of cDNA expression. Currents evoked by acetylcholine or other agonist ligands were recorded using the standard two-electrode voltage-clamp configuration (TEVC). X. laevis oocytes were prepared and injected using standard procedures. Briefly, ovaries were harvested from X. laevis females that were deeply anesthetized and pithed following the animal rights rule from the Geneva canton. A small piece of ovary was isolated for immediate preparation while the remaining part was placed at 4° C. in a sterile Barth solution containing in mM: NaCl 88, KCl 1, NaHCO3 2.4, HEPES 10, MgSO4.7H2O 0.82, Ca(NO3)2.4H2O 0.33, CaCl2.6H2O 0.41, at pH 7.4, and supplemented with 20 μg/mL of kanamycin, 100 unit/mL penicillin and 100 μg/mL streptomycin. […] Cells were held at −80 mV. Data were filtered at 10 Hz, captured at 100 Hz and analyzed using proprietary data acquisition and analysis software running under Matlab (Mathworks Inc.).
Experimental Protocol and Analysis
After establishing a baseline transmembrane current, acetylcholine (ACh) was applied for 5 seconds at a concentration of 0.2 mM to establish a control ACh-evoked current response. Following a wash period of 90 s in OR2 medium (free of ACh), cells were then exposed for 30 s to the test compound applied at 0.01 mM. The same reference ACh test pulse was immediately given at the end of the compound exposure and again after 90 s of recovery in OR2 Medium (free of ACh or test compound). All data were determined in triplicate. The response evoked by the test compound was expressed as a percentage of that evoked by ACh: Response (% ACh)=100×(Itest/IACh) where Itest is the peak inward current measured during exposure to 0.01 mM of test compound and IACh is the peak inward current measured in the presence of ACh.

Going from `CC1(C)C(NC(=O)c2ccc(Cl)cc2)C2CCN1CC2` (single isomer, unassigned; enantiomer1) [2a, 4-chloro-N-(2,2-dimethylquinuclidin-3-yl)benzamide-enantiomer1 hydrochloride] to `O=C(NC1C2CCN(CC2)C12CC2)c1ccc(Cl)cc1` (single isomer, unassigned; enantiomer1) [55a, 4-chloro-N-(1′-azaspiro[cyclopropane-1,2′-bicyclo[2.2.2]octan]-3′-yl)benzamide-enantiomer1 hydrochloride], the “% ACh @ 10 μM Oocyte” value falls from 246 % ACh to 3 % ACh.

Going from `CC1(C)C(NC(=O)c2ccc(Cl)cc2)C2CCN1CC2` (single isomer, unassigned; enantiomer2) [2b, 4-chloro-N-(2,2-dimethylquinuclidin-3-yl)benzamide-enantiomer2 hydrochloride] to `O=C(NC1C2CCN(CC2)C12CC2)c1ccc(Cl)cc1` (single isomer, unassigned; enantiomer2) [55b, 4-chloro-N-(1′-azaspiro[cyclopropane-1,2′-bicyclo[2.2.2]octan]-3′-yl)benzamide-enantiomer2 hydrochloride], the “% ACh @ 10 μM Oocyte” value rises from 2 % ACh to 176 % ACh.
